In PubChem BioAssay (NCI):
“And” between values parts separate entries of the source, which are not always exact repeats. Equal entries are not always repeated. This is a selection; strong and weak results do not stand in their true shares. The source holds several records for some structures; these can differ, active in one and inactive in another. The source made the active and inactive calls. No stated cut-off is given here; in the data, active means growth inhibition above about 70%; inactive means the rest.

Legend:
[1] = NCI Yeast Anticancer Drug Screen. Data for the rad50 strain (AID 155);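 further: 0% = growth of vehicle-only cultures of the same strain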; conditions: S. cerevisiae rad50 strain growth inhibition, stronger effect = higher value
[2] = NCI Yeast Anticancer Drug Screen. Data for the mec2-1 strain (AID 157); conditions: S. cerevisiae mec2-1 strain, stronger effect = higher value
[3] = NCI Yeast Anticancer Drug Screen. Data for the sgs1 mgt1 strain (AID 161);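 further: 0% = growth of cultures given vehicle only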; conditions: S. cerevisiae sgs1 mgt1 strain, stronger effect = higher value
[4] = NCI Yeast Anticancer Drug Screen. Data for the cln2 rad14 strain (AID 165);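 further: 0% = growth equal to vehicle treated cultures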; conditions: S. cerevisiae cln2 rad14 strain, stronger effect = higher value
[5] = NCI Yeast Anticancer Drug Screen. Data for the bub3 strain (AID 167); conditions: S. cerevisiae bub3 mutant strain, stronger effect = higher value
[6] = NCI Yeast Anticancer Drug Screen. Data for the mlh1 rad18 strain (AID 175); conditions: S. cerevisiae mlh1 rad18 strain growth inhibition, stronger effect = higher value
[7] = at 5.0 µM (retest, dose inferred, filed as 0.5)
[8] = at 50.0 µM (retest, dose inferred, filed as 5.0)

Measured: growth inhibition

O=[N+]([O-])c1ccc2nn([N+](=O)[O-])cc2c1
inactive: [4]; [7] 63%
active: [1]; [7] 79% | [1]; [8] 99% | [1]; at 50.0 µM 99.5% | [2]; [7] 97% | [2]; [8] 100% | [2]; at 50.0 µM 99.3% | [3]; [7] 94% | [3]; [8] 99% | [3]; at 50.0 µM 99.4% | [4]; [8] 96% | [4]; at 50.0 µM 99.3% | [5]; [7] 99% | [5]; [8] 99% | [5]; at 50.0 µM 99.2% | [6]; [7] 87% | [6]; [8] 99% | [6]; at 50.0 µM 99.5%

C[N+]1(CCCCCC[N+]2(C)CCCCCCC2)CCCCCCC1
active: [1]; at 50.0 µM 97.4% | [2]; at 50.0 µM 97.5% | [3]; at 50.0 µM 97.2% | [4]; at 50.0 µM 97.4% | [5]; at 50.0 µM 97% | [6]; at 50.0 µM 97%
inactive: [1]; [7] -12% | [1]; [8] -5% | [2]; [7] -5% | [2]; [8] -2% | [3]; [7] 1% | [3]; [8] 6% | [4]; [7] -4% | [4]; [8] -8% | [5]; [7] 12% | [5]; [8] -6% | [6]; [7] -12% | [6]; [8] 20%

O=P1(N(CCCl)CCCl)Oc2ccc(Cl)cc2C(C(Cl)(Cl)Cl)O1 (configuration not stated)
inactive: [1]; [7] 5% | [2]; [7] -4% | [3]; [7] -1% | [4]; [7] 3% | [5]; [7] 10% | [6]; [7] 4%
active: [1]; [8] 98% | [1]; at 50.0 µM 97.8% | [2]; [8] 99% | [2]; at 50.0 µM 97.2% | [3]; [8] 99% | [3]; at 50.0 µM 97.8% | [4]; [8] 97% | [4]; at 50.0 µM 97.2% | [5]; [8] 98% | [5]; at 50.0 µM 97.7% | [6]; [8] 98% | [6]; at 50.0 µM 98.1%

O=C(C(=O)c1ccc([N+](=O)[O-])cc1[N+](=O)[O-])c1ccc([N+](=O)[O-])cc1[N+](=O)[O-]
inactive: [1]; [7] 13% | [2]; [7] 7% | [2]; [8] 56% | [2]; at 50.0 µM 53.4% | [3]; [7] 10% | [4]; [7] 6% | [4]; [8] 36% | [4]; at 50.0 µM 3.05% | [5]; [7] 8% | [6]; [7] 19%
active: [1]; [8] 89% | [1]; at 50.0 µM 73.9% | [3]; [8] 73% | [3]; at 50.0 µM 77.2% | [5]; [8] 73% | [5]; at 50.0 µM 75.9% | [6]; [8] 83% | [6]; at 50.0 µM 87.7%

COc1ccc2c(c1)C1(C)CCC(O2)C12CO2 (configuration not stated)
inactive: [2]; [7] 37% | [2]; [8] 41% | [3]; [7] 13% | [3]; [8] 45% | [5]; [7] 19% | [5]; [8] 11% | [6]; [7] 31% | [6]; [8] 46% | [6]; at 50.0 µM -38.8%
active: [1]; [7] 82% | [1]; [8] 91% | [1]; at 50.0 µM 89.2% | [2]; at 50.0 µM 90.2% | [3]; at 50.0 µM 89.6% | [4]; [7] 76% | [4]; [8] 91% | [4]; at 50.0 µM 88.8% | [5]; at 50.0 µM 89.9%

ClC(SSC(Cl)C(Cl)(Cl)Cl)C(Cl)(Cl)Cl (configuration not stated)
inactive: [1]; at 50.0 µM 59.2% | [2]; at 50.0 µM 43.6% | [4]; [7] 59% | [4]; at 50.0 µM 22.6% | [6]; at 50.0 µM 69.8%
active: [1]; [7] 99% | [1]; [8] 99% | [2]; [7] 100% | [2]; [8] 99% | [3]; [7] 71% | [3]; [8] 98% | [3]; at 50.0 µM 72% | [4]; [8] 97% | [5]; [7] 90% | [5]; [8] 99% | [5]; at 50.0 µM 77.2% | [6]; [7] 100% | [6]; [8] 99%

O=[N+]([O-])c1cc(C(c2cc([N+](=O)[O-])c(Cl)c([N+](=O)[O-])c2)C(Cl)(Cl)Cl)cc([N+](=O)[O-])c1Cl
inactive: [1]; at 50.0 µM 5.05% | [2]; at 50.0 µM 45.8% | [3]; at 50.0 µM 20.9% | [4]; at 50.0 µM 15.5% | [6]; at 50.0 µM 65.2%
active: [1]; [7] 98% | [1]; [8] 88% | [2]; [7] 99% | [2]; [8] 93% | [3]; [7] 99% | [3]; [8] 92% | [4]; [7] 98% | [4]; [8] 88% | [5]; [7] 98% | [5]; [8] 91% | [5]; at 50.0 µM 96.5% | [6]; [7] 98% | [6]; [8] 92%

ClCCN(CCCl)c1cccc(CN2CCCCC2)c1
65.6% (inactive) and 74.9% (active): [3]; at 50.0 µM
inactive: [1]; [7] 23% | [1]; [8] 63% | [1]; at 50.0 µM 32.7% and 39% | [2]; [7] 25% | [2]; [8] 19% | [2]; at 50.0 µM 46.2% and 35.5% | [3]; [7] 36% | [3]; [8] 62% | [4]; [7] 52% | [4]; [8] 62% | [4]; at 50.0 µM 50.6% and 56% | [5]; [7] 35% | [5]; at 50.0 µM 61.1% and 38.6% | [6]; [7] 63% | [6]; at 50.0 µM 66.6% and 61.5%
active: [5]; [8] 79% | [6]; [8] 84%

CCN(CCNCCCNCCSP(=O)(O)O)c1cccc(C)c1
active: [1]; [8] 96% | [2]; [8] 98% | [3]; [8] 98% | [4]; [8] 89% | [5]; [8] 97% | [6]; [8] 98% | [6]; at 50.0 µM 75.4%
inactive: [1]; [7] 3% | [1]; at 50.0 µM 9.85% | [2]; [7] -7% | [2]; at 50.0 µM -7.95% | [3]; [7] -6% | [3]; at 50.0 µM 21.8% | [4]; [7] -7% | [4]; at 50.0 µM -1.85% | [5]; [7] -6% | [5]; at 50.0 µM 34.9% | [6]; [7] 17%
